Source: ChEMBL document CHEMBL3621077, “Synthesis of hybrid anticancer agents based on kinase and histone deacetylase inhibitors” (Medchemcomm, 2014)

Protein sequences, listed by entry. Tags and fused reporters are not part of them. Lines headed by an entry give the natural chain unless they say otherwise; changes in a name come on top.
UniProt Q13547: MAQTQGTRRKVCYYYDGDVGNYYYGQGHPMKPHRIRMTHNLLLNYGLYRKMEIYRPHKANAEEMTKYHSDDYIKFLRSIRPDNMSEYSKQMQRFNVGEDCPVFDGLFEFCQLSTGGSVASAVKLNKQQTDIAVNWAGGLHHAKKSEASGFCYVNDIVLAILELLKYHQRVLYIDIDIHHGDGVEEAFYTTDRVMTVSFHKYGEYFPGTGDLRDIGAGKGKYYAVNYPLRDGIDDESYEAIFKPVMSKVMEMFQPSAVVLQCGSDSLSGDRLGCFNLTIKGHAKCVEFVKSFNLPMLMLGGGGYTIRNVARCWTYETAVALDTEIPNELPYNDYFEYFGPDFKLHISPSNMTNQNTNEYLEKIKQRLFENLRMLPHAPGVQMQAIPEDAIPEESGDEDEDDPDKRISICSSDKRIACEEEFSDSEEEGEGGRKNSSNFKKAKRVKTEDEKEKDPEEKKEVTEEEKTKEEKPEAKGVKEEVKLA
UniProt Q92769: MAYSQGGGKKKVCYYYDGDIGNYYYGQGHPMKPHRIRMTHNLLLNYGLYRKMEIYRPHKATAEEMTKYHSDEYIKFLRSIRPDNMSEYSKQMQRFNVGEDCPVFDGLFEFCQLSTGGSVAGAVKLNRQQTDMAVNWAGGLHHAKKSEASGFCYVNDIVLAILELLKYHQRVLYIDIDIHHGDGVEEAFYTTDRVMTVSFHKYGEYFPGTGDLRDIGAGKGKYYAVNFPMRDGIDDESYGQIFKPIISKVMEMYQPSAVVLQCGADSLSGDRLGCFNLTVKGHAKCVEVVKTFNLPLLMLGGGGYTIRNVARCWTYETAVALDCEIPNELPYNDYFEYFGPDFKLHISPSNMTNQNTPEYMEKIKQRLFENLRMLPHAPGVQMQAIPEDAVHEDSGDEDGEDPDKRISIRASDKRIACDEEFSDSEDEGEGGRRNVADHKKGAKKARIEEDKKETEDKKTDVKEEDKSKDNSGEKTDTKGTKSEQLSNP
UniProt Q9UQL6: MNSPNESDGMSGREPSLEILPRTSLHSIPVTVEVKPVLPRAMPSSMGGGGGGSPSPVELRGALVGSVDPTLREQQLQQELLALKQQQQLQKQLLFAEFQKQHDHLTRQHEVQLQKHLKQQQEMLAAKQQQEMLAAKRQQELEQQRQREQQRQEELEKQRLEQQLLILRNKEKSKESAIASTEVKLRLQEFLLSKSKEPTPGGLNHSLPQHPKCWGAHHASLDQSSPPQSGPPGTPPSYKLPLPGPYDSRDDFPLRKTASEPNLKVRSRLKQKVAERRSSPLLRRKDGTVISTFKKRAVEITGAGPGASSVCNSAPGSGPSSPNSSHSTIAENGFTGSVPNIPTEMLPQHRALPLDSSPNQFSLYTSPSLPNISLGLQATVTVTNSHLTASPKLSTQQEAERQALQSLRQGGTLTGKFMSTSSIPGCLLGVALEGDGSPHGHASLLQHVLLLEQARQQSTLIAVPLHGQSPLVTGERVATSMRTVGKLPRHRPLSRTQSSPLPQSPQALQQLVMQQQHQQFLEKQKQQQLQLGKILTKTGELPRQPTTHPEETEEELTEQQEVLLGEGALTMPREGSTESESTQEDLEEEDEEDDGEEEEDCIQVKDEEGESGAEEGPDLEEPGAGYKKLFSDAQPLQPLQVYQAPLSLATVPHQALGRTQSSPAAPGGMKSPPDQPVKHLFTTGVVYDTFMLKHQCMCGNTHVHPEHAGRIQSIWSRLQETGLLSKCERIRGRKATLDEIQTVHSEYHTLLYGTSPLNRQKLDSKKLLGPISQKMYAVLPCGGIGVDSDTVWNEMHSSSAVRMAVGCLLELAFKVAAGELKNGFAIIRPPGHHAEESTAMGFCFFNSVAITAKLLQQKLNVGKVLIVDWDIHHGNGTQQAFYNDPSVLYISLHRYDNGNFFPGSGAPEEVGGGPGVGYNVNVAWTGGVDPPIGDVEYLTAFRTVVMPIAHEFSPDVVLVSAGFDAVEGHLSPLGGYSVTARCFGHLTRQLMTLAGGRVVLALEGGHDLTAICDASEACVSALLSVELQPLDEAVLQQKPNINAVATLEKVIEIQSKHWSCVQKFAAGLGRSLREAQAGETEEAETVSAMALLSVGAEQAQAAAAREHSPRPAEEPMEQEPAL
UniProt Q8WUI4: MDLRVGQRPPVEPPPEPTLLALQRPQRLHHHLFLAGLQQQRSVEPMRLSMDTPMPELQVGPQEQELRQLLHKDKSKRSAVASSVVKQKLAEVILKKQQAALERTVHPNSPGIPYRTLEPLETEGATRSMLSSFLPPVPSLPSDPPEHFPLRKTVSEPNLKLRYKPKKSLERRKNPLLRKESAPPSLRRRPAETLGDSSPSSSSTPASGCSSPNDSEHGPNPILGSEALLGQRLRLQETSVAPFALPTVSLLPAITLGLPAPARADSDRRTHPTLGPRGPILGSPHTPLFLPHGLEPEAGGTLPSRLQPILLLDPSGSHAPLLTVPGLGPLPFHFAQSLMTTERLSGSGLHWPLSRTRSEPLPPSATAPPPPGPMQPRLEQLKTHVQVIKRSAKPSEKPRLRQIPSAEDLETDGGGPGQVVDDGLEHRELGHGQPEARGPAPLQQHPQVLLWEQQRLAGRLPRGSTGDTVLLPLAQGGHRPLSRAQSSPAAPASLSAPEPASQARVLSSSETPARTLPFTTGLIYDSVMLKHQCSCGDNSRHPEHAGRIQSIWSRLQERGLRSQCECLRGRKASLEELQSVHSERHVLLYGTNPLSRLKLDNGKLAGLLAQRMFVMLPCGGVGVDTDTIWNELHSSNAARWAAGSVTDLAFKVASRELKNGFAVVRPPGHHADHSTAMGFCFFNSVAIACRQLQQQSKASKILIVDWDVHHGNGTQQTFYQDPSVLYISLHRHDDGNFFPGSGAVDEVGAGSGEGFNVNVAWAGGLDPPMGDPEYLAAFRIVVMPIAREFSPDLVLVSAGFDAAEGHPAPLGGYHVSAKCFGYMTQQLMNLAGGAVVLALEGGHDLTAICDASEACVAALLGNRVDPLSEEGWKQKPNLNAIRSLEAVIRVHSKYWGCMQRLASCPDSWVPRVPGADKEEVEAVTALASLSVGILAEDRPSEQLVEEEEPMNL
UniProt Q9BY41: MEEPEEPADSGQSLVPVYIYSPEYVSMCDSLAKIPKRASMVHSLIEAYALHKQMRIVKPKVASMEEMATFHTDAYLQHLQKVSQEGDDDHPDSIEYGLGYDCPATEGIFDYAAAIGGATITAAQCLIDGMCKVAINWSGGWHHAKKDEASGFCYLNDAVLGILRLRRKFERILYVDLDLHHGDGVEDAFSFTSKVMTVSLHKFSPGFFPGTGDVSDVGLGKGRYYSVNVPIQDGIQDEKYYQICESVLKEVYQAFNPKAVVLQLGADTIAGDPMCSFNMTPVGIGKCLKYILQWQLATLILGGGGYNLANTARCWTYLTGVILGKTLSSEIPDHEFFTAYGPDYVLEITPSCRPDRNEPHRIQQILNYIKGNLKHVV
UniProt Q96DB2: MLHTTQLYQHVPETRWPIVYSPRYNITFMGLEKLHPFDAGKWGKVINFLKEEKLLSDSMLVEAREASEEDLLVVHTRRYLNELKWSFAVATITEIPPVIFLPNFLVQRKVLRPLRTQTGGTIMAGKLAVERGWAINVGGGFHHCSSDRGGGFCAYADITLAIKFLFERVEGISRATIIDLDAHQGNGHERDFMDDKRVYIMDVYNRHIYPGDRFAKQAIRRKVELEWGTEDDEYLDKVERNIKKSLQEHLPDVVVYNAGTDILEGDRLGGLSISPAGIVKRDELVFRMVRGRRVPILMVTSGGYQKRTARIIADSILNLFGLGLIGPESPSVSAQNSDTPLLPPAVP
UniProt P56524: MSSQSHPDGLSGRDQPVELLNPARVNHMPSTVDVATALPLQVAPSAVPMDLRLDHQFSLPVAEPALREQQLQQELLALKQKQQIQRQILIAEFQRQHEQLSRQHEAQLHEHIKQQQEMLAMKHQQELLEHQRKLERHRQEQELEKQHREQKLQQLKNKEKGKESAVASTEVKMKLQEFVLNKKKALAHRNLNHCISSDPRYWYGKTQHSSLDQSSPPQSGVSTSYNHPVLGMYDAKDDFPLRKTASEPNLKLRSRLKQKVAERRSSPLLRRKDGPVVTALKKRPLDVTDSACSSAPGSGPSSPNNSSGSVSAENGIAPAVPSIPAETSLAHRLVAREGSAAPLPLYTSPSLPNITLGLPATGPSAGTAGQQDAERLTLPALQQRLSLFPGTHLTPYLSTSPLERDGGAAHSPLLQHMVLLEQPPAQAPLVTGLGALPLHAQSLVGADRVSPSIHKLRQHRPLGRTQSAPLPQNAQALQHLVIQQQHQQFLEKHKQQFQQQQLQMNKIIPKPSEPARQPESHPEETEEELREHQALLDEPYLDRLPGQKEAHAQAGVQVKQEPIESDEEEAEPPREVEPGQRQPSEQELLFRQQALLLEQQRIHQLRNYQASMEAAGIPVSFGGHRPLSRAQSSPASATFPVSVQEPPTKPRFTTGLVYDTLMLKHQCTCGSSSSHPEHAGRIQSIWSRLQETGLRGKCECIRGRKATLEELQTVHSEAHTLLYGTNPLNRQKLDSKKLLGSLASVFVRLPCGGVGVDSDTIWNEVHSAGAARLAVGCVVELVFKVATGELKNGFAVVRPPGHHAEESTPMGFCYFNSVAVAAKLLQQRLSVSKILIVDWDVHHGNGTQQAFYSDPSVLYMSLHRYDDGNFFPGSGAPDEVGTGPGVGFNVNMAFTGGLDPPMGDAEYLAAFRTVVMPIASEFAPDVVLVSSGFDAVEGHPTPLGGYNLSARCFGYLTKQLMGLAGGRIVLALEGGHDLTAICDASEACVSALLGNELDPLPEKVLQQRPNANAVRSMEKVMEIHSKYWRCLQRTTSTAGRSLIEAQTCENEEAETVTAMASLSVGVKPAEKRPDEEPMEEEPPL
UniProt Q9UKV0: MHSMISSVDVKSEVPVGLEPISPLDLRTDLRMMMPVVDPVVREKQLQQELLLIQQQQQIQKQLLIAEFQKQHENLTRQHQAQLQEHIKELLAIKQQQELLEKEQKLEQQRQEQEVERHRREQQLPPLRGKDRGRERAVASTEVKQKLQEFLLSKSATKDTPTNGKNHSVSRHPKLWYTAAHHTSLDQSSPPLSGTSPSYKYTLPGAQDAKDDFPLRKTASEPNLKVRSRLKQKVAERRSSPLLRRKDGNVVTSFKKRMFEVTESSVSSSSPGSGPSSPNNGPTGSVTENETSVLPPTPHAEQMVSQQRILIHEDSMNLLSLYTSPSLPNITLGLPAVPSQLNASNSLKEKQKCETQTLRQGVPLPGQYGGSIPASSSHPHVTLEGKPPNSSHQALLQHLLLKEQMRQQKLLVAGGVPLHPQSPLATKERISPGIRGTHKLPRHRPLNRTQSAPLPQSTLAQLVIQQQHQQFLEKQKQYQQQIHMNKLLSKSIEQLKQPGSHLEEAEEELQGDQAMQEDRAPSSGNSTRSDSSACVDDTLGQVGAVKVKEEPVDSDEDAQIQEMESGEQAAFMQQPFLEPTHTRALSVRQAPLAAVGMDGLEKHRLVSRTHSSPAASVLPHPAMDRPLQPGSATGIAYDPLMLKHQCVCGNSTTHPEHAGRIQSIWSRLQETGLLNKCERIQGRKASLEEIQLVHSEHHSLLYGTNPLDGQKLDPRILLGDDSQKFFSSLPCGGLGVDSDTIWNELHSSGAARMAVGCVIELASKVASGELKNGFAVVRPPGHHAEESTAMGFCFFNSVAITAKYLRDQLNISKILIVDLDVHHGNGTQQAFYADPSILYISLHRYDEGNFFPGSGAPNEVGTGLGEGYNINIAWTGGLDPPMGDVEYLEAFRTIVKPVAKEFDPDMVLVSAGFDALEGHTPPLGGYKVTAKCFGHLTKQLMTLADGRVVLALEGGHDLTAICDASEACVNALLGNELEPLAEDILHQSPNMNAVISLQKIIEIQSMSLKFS
UniProt Q969S8: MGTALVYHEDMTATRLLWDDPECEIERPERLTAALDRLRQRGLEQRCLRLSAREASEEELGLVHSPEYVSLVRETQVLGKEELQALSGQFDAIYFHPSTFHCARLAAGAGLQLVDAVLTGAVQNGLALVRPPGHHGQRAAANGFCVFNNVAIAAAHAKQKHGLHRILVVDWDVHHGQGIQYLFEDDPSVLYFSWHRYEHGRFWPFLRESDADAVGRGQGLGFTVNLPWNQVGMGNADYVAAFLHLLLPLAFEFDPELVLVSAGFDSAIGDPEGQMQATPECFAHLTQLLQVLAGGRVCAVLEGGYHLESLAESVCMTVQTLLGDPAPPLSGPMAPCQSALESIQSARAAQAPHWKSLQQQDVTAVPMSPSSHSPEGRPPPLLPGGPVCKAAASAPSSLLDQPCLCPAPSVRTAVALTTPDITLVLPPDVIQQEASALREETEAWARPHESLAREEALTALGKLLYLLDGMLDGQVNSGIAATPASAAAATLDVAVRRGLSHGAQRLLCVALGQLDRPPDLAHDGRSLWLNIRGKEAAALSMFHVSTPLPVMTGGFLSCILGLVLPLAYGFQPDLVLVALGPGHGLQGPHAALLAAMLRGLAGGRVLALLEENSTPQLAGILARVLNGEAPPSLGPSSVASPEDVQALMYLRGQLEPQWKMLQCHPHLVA

Target: Histone deacetylase (Homo sapiens) (UniProt Q13547+O15379+Q9UBN7+Q92769+Q9UQL6+Q8WUI4+Q9BY41+Q96DB2+P56524+Q9UKV0+Q969S8)
Assay: Inhibition of HDAC isolated from human HeLa cells at 1 uM by fluorimetric assay
Type: cell-free

| SMILES | inhibition |
| --- | --- |
| O=C(CCCCC(=O)Nc1ccc2c(c1)/C(=C/c1ccc[nH]1)C(=O)N2)NO | > 20% |
| O=C(CCCCCCC(=O)Nc1ccc2c(c1)/C(=C/c1ccc[nH]1)C(=O)N2)NO | > 20% |
